Consider 1 molecule from paper PMC11558128 (Advanced Science, 2024).

Sequences of proteins named here, by UniProt entry; tags and fusion partners are left off. A line that says so, or that is headed by a name, gives the form on record, which may keep a tag or linker.
UniProt Q15858, other isoform, or with tags, fused parts or gaps: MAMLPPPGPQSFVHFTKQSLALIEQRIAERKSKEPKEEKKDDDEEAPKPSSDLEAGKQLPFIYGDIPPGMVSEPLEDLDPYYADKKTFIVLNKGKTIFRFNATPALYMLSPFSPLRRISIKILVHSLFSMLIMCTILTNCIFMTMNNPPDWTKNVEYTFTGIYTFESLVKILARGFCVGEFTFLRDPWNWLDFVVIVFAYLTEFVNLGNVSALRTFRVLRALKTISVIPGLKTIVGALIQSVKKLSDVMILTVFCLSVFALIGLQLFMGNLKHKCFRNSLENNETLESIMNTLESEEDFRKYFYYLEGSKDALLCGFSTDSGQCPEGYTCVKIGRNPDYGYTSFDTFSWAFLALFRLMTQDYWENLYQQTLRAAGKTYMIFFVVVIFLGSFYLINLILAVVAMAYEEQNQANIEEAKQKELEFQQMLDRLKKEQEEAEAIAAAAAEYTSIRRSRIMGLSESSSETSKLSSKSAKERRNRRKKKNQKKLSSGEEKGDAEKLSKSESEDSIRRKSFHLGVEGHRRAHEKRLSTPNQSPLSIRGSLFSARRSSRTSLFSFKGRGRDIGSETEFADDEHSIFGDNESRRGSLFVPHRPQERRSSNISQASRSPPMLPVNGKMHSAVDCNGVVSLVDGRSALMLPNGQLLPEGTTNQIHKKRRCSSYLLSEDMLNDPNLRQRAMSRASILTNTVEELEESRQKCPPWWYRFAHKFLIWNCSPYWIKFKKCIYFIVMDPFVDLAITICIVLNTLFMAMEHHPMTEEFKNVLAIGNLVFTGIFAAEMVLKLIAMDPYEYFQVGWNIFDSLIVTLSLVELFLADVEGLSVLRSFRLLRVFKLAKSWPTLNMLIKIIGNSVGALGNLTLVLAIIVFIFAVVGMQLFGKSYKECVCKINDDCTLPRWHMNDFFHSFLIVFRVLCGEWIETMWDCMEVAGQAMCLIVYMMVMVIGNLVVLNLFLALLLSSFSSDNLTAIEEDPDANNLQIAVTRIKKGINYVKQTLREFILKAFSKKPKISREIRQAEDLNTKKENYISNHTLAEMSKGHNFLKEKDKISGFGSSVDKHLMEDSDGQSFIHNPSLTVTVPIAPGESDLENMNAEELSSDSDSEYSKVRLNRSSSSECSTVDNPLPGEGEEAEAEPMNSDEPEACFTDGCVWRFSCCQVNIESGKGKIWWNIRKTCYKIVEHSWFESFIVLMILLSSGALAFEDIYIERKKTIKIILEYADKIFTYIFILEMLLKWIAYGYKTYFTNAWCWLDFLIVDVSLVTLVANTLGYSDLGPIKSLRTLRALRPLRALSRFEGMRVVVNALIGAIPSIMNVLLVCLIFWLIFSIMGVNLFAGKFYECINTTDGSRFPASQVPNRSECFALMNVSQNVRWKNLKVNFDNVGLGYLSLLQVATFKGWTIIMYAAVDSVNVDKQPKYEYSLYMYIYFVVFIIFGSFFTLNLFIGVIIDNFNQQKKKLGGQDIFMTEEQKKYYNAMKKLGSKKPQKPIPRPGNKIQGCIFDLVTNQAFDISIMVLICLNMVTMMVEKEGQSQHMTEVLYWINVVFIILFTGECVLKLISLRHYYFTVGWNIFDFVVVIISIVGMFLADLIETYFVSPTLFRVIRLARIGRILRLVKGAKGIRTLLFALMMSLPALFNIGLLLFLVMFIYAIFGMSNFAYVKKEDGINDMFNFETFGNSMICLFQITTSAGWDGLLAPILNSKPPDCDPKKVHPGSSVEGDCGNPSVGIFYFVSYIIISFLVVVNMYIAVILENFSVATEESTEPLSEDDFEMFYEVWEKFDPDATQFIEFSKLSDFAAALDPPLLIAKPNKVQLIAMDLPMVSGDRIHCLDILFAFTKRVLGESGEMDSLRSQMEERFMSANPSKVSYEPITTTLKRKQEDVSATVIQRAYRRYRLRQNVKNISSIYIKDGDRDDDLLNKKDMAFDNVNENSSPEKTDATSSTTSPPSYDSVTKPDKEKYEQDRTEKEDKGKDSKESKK

Each structure is given as a SMILES string. Substitutions are numbered along the chain they refer to.

What all share (assay): cell-based
The target of assay [1] is T1, hNav1.7 (Homo sapiens, UniProt Q15858).
T1 construct: expressed in transfected cells; host or cells: HEK293T
The following applies: IC50 for hNav1.7; SEM.

The target of assay [2] is T2, rKv4.2 V278A (Rattus norvegicus, UniProt Q63881, V278A).
T2 construct: expressed in transfected cells; host or cells: HEK293T
T2 sequence (Q63881 1-630 V278A): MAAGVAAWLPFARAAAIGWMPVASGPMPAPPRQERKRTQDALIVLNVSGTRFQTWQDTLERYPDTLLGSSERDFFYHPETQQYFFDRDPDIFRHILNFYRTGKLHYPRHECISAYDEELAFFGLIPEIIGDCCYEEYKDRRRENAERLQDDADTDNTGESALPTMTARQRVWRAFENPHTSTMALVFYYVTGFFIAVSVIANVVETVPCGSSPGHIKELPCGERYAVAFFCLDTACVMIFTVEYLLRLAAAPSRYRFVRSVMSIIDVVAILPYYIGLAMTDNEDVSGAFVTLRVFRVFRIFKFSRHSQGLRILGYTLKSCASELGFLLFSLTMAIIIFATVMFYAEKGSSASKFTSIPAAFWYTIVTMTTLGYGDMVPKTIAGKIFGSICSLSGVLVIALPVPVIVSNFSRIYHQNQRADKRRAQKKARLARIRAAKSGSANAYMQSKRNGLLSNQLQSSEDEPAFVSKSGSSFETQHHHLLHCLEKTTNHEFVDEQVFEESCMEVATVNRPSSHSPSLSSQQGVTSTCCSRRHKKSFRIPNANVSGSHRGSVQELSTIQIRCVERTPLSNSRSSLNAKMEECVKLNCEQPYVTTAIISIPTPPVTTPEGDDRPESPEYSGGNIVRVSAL
The following applies: SEM.

Assay [3] deals with T3, rKv4.2 E283K (Rattus norvegicus, UniProt Q63881, E283K).
T3 construct: expressed in transfected cells; host or cells: HEK293T
T3 sequence (Q63881 1-630 E283K): T2 sequence (Q63881 1-630 V278A) with A278V, E283K
The following applies: SEM.

The target of assay [4] is T4, rKv4.2 N282A (Rattus norvegicus, UniProt Q63881, N282A).
T4 construct: expressed in transfected cells; host or cells: HEK293T
T4 sequence (Q63881 1-630 N282A): T2 sequence (Q63881 1-630 V278A) with A278V, N282A
The following applies: SEM.

Assay [5] concerns the target T5, rKv4.2 M279A (Rattus norvegicus, UniProt Q63881, M279A).
T5 construct: expressed in transfected cells; host or cells: HEK293T
T5 sequence (Q63881 1-630 M279A): T2 sequence (Q63881 1-630 V278A) with A278V, M279A
The following applies: SEM.

`CC[C@H](C)[C@H](NC(=O)[C@H](CCCCN)NC(=O)[C@H](Cc1ccc(O)cc1)NC(=O)[C@H](CCCCN)NC(=O)[C@@H]1CSSC[C@@H]2NC(=O)[C@H](CCC(=O)O)NC(=O)[C@H](CC(=O)O)NC(=O)[C@H](CCCCN)NC(=O)CNC(=O)[C@@H]3CCCN3C(=O)[C@H]([C@@H](C)O)NC(=O)[C@@H]3CSSC[C@H](NC(=O)[C@H](C(C)C)NC(=O)[C@H](Cc4c[nH]cn4)NC(=O)[C@H](CC(N)=O)NC(=O)[C@@H]4CCCN4C(=O)[C@H](CSSC[C@H](NC(=O)[C@H](C)N)C(=O)N[C@@H](CCCCN)C(=O)NCC(=O)N[C@@H]([C@@H](C)CC)C(=O)N[C@@H](Cc4ccccc4)C(=O)N[C@@H](C(C)C)C(=O)N[C@@H]([C@@H](C)O)C(=O)N3)NC2=O)C(=O)N[C@@H](CO)C(=O)N[C@@H](CO)C(=O)N[C@@H](CCCCN)C(=O)N[C@@H](Cc2c[nH]cn2)C(=O)N[C@@H](CCCCN)C(=O)N[C@@H](Cc2c[nH]c3ccccc23)C(=O)N1)C(N)=O` [Cl6b]: the IC50 – broadly, the midpoint of a concentration-inhibition curve – was determined as 76.9 ± 4.1 nM in assay [1]; 145 ± 20 nM in assay [2]; 1640 ± 386 nM in assay [3]; 3 ± 1 nM in assay [4]; 309 ± 126 nM in assay [5].
